Test results reported in ChEMBL document CHEMBL5053550, “LipE guided discovery of isopropylphenyl pyridazines as pantothenate kinase modulators” (Bioorg Med Chem, 2021).

Sequences of proteins named here, by UniProt entry; tags and fusion partners are left off. A change or cut given only in a name is not applied to a line headed by its entry.
UniProt Q9H999: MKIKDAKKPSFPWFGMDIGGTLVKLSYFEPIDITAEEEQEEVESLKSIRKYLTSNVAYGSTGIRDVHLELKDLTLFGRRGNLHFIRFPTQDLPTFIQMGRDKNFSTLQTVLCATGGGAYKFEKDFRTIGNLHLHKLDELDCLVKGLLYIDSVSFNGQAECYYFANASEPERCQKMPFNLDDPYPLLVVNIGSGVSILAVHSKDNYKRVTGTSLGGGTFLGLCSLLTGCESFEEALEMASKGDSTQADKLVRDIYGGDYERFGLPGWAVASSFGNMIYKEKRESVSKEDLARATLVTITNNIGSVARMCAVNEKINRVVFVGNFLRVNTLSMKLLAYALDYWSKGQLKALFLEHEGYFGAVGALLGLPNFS

Target: Pantothenate kinase 3 (Homo sapiens, UniProt Q9H999)

SMILES	IC50 [nM]
CC(C)c1ccc(NC(=O)N2CCN(c3ccc(Cl)nn3)CC2)cc1	0.7
CC(C)c1ccc(NC(=O)N2CCN(c3cnc(C#N)cn3)CC2)cc1	29
CC(C)(C)c1ccc(NC(=O)N2CCN(c3ccc(C#N)cn3)CC2)cc1	510
CC(C)c1ccc(CC(=O)N2CCN(c3ccc(C#N)cn3)CC2)cc1	60
CC(C)c1ccc(NC(=O)N2CCN(c3ccc(C#N)nn3)CC2)cc1	4
CC(C)c1ccc(OC(=O)N2CCN(c3ccc(C#N)nn3)CC2)cc1	10
CC(C)c1ccc(CC(=O)N2CCN(c3cnc(C#N)nc3)CC2)cc1	10
CC(C)(C)c1ccc(CC(=O)N2CCN(c3ccc(C#N)cn3)CC2)cc1	60
CC(C)c1ccc(NC(=O)N2CCN(c3ccc([N+](=O)[O-])cn3)CC2)cc1	20
CC(C)c1ccc(CC(=O)N2CCN(c3cnc(Cl)cn3)CC2)cc1	1.8
